{
  "source": "paper PMC3198786",
  "about": "“LL37 and Cationic Peptides Enhance TLR3 Signaling by Viral Double-stranded RNAs” (PLoS ONE, 2011)",
  "test_system": "BEAS2B cells",
  "test": "WST-1 viability of BEAS2B cells",
  "assay_type": "cell-based, human",
  "details": "KR18-37 4 µM, mCRAMP 5 µM, data not shown",
  "procedure": "Supplementary file pone.0026632.s002.tif: Figure S2 Effects of LL37 concentration on viability of BEAS2B cells±poly(I:C). Cell viability was assessed using the WST-1 assay (Clontech, Mountain View CA). After treatments, cells were incubated with WST-1 substrate for 4 h and absorbance was measured at 450 nm with 630 nm as reference. The readout performed in the absence of LL37 (i.e. Control) is defined as 100%. […] The graph is representative of five experiments. […] (TIF) Click here for additional data file.",
  "data": [
    {"substance": "mCRAMP", "values": [
      {"measurement": "Cytotoxicity in BEAS2B cells", "result": "no cytotoxicity was detected"}
    ]}
  ]
}
